Experiment: Phase solubility diagram
Settings: container M2C4; 20 mM sodium phosphate buffered D2O, pD 7.4, rt; Gel = gel formed

CCCCc1oc2ccccc2c1C(=O)c1cc(I)c(OCCN(CC)CC)c(I)c1 [Amiodarone]
Initial slope of the PSD: Gel
